This is an account of results in ChEMBL document CHEMBL1127086, “Syntheses and biological evaluations of 3'-deoxy-3'-C-branched-chain-substituted nucleosides” (1993).

SMILES strings stand for the structures.

Assay [1] concerns Thymidine kinase (Human herpesvirus 1). The experiment in a line: Antiviral activity against thymidine kinase from Herpes simplex virus type-1 (KOS Strain) infected HeLa (Bu-25-TK-) cells at 500 uM concentration.
For assay [2], the system named is Thymidine kinase (Human herpesvirus 2). In words: Antiviral activity against thymidine kinase from Herpes simplex virus type-2 (333 Strain) infected HeLa (Bu-25-TK-) cells at 500 uM concentration.

As to `Cc1cn([C@@H]2O[C@H](CO)[C@@H](O)[C@@H]2O)c(=O)[nH]c1=O`, the inhibition (usually the share of the control response that was lost under treatment) in assay [1] was 55.1%; in assay [2] it was 22%.
